Assay results: publication PMC11172478, “1,3,5-Triazine as Branching Connector for the Construction of Novel Antimicrobial Peptide Dendrimers: Synthesis and Biological Characterization” (International Journal of Molecular Sciences, 2024)

What was measured:
[1] = system: Hep G2 hepatocellular carcinoma cell line; test: Cytotoxicity, resazurin reduction; assay type: cell-based, human; settings: HepG2 cells, 24 h, resazurin fluorescence
Experimental: (§1) The cytotoxicity assay was performed in the human hepatocellular carcinoma cell line Hep G2 ATCC and murine L-929 fibroblasts (NCTC clone 929, ECACC 88102702) obtained from the laboratory of Dr. Pérez-Tomás (Cancer Cell Biology, University of Barcelona). The cytotoxicity of the selected peptides was determined by measuring the intracellular reduction of resazurin sodium salt (Sigma-Aldrich, St. Louis, MO, USA). Briefly, HepG2 and L-929 cells were grown in RPMI 1640 or MEM medium, respectively (Biochrom AG, Berlin, Germany), supplemented with 10% fetal bovine serum. Cells from pre-confluent cultures were harvested with trypsin-EDTA and maintained at 37 °C in 5% CO2. Then, 100 µL of each cell line was seeded into 96-well flat-bottomed microplates and incubated for 24 h at 37 °C. The medium was then replaced with 200 μL of medium containing the dendrimers at concentrations ranging from 64 to 0.125 μg/mL and the microplates were incubated for 24 h at 37 °C. Next, 20 μL of resazurin was added to each well and the plates were incubated under the same conditions for 24 h. Fluorescence was measured using a multiwell scanning spectrophotometer at an excitation wavelength of 530 nm and an emission wavelength of 590 nm. Cytotoxicity was then calculated by comparing the fluorescence of the treated and untreated cells (Figure S22).

L-929 fibroblasts = test: Cytotoxicity, resazurin reduction; assay type: cell-based, murine; settings: L-929 cells, 24 h, resazurin fluorescence
Experimental: as §1

## H-[(LK)3-EDA]4-(TA-EDA)2-TA-(LK)3-NH2 [Dendrimer 3]
[1]
  % Cytotoxicity at 64µg/mL, HepG2: 0%
L-929 fibroblasts
  % Cytotoxicity at 64µg/mL, L-929: 0%
